In one assay the target is Bcl-2 (Homo sapiens, UniProt P10415). The experiment in a line: Fluorescence polarization-based. As to conditions: FP competitive binding. On the technique in general: Fluorescence polarisation rises when a labelled molecule tumbles more slowly, as on binding a larger partner.
Another assay addresses Bcl-xL (Homo sapiens, UniProt Q07817). The assay can be described thus: Fluorescence polarization-based. As to conditions: read-out: Binding Affinities Bcl-xL Ki ± SD; FP competitive binding.

By UniProt entry, the sequences of proteins in these tests, tags left out.
UniProt P10415, whole entry: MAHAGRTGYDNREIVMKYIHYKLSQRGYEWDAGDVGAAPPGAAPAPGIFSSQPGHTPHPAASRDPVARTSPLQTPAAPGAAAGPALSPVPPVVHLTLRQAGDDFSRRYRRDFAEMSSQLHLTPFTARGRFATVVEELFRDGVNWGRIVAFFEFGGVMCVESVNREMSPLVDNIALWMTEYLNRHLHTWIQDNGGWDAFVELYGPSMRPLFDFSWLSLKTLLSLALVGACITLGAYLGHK
UniProt Q07817, whole entry: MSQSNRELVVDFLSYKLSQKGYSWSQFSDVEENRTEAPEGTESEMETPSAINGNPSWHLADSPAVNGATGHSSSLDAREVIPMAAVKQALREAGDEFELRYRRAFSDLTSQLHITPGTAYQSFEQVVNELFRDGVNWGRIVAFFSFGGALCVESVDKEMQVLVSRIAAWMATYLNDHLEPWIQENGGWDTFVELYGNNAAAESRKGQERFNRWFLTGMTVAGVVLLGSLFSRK

Experimental findings from article PMC3417242 (Journal of medicinal chemistry, 2012) are described below.

As for “(R)-5-(4-Chlorophenyl)-4-(3-(4-(4-(((4-((4-(dimethylamino)-1-(phenylthio)butan-2-yl)amino)phenyl)sulfonyl)carbamoyl)phenyl)piperazin-1-yl)phenyl)-1,2-dimethyl-N-(3-(4-methylpiperazin-1-yl)propyl)-1H-pyrrole-3-carboxamide [Compound 9]”, the IC50 on Bcl-2 (read-out: Binding Affinities Bcl-2 IC50 ± SD) worked out at 29 ± 8 nM. In addition, the Ki stood at 7 ± 2 nM at Bcl-2 (read-out: Binding Affinities Bcl-2 Ki ± SD) and 1.3 nM on Bcl-xL.

As usually defined, the IC50 is the point on the concentration scale where inhibition reaches its midpoint. Usually Ki stands for a measure of affinity in units of concentration, obtained from inhibition or displacement.
